Experimental data published in US20140107051A1, “ISOFLAVONES FOR TREATING MUCOPOLYSACCHARIDOSES” (INSTYTUT FARMACEUTYCZNY, priority 2005, published 2014).

Assay: in vitro

SMILES: O=c1c(-c2ccc(O)cc2)coc2cc(O)cc(O)c12 [Genistein, 4′,5,7-trihydroxy-3-phenylchromen-4-on, reference compound]
- CC50 at 48 h: > 100 µM
